Amino acid sequences for entries named in this document (tags omitted). A change or cut given only in a name is not applied to a line headed by its entry.
UniProt Q9NSE2: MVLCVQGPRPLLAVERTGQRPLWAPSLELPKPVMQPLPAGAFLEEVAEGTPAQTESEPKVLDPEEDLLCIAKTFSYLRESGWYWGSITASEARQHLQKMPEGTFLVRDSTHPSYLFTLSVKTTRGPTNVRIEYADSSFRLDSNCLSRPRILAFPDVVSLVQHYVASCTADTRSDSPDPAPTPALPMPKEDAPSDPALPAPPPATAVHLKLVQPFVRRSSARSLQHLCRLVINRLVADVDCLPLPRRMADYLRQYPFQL

In US20230192857A1:

Columns and labels:
[1] = target: TYK2
[2] = target: JAK2

Substance: CIS (from UniProt Q9NSE2 66-258; Q15370 1-118; Q15369 17-112)
- IC50 [1]: > 20000 nM
- IC50 [2]: 2400 nM
